The target of data set [1] is Olfr57 (Mus musculus, UniProt Q8VGU7). Nature of the data set: cAMP-dependent dual luciferase reporter assay, Olfr57 expressed in HEK293T cells. It is filed as cell-based. Particulars: HEK293T cells expressing Olfr57, Firefly:Renilla ratio, 4 h, dose response of at least 6 concentrations; read-out: EC50 for activation of Olfr57. The source says:
For ORs whose trafficking conditions could be established as described above, an unbiased ligand screen using a dual-luciferase reporter assay (Promega) was used to identify potential ligands. Briefly, ORs were transiently transfected (Lipofectamine 2000, Invitrogen) in triplicate into HEK293T cells along with constructs encoding for CREB-dependent luciferase (Firefly) and a constitutively expressed luciferase (Renilla), along with any accessory proteins previously established to be required for effective cell-surface trafficking. Additional surface labeling experiments were performed with the Firefly and Renilla constructs to ensure effective trafficking was not lost under these transfection conditions. OR activation leads to a rise in cAMP which drives an increase in Firefly luciferase expression. Firefly activity is normalized to the activity of the Renilla luciferase to control for variation in cell number and transfection efficiency. Data were collected using a FLUOstar Omega automated plate reader (BMG LabTech, Cary, NC, United States). Cells were allowed to incubate for at least 30 min in CD293 minimal media, and were then bathed with potential odorants diluted in minimal media for 4 h before measuring Firefly and Renilla-derived luminescence. […] A significant rise in Firefly:Renilla over baseline was determined by multiple T-Tests ([…] deemed significant).
On the technique in general: In a reporter assay the amount or activity of a reporter protein is the signal.

Sequences of proteins named here, by UniProt entry; tags and fusion partners are left off.
UniProt Q8VGU7, entry or part of it: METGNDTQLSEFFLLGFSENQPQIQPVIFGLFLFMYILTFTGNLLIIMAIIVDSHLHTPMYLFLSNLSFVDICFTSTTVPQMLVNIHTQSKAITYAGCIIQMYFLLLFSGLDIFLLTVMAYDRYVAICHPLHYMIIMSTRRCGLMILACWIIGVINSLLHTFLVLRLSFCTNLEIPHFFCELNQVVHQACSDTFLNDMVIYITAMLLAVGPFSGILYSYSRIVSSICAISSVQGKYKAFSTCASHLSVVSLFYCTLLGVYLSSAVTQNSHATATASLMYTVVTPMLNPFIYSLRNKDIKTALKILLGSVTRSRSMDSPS

Data set [2] concerns CYP2A6. The arrangement: method as in Gyoubu and Miyazawa, 2007; Miyazawa and Gyoubu, 2007. Particulars: ref Gyoubu and Miyazawa, 2007; cited from earlier work.

Here are results for one substance from publication PMC7573564, “The Sensing Liver: Localization and Ligands for Hepatic Murine Olfactory and Taste Receptors” (Frontiers in Physiology, 2020).

By EC50 is commonly meant the concentration needed to bring the measured effect to its halfway point.

With (1R)-(+)-camphor, in data set [1], the EC50 amounted to 680 µM. Also, the “metabolized in the liver by microsomal enzyme CYP2A6” value in data set [2] was “metabolized”.
